The target in the assay is CDK4/CyclinD1 (Homo sapiens, UniProt P11802). As to the kind of experiment: In vitro kinase assay CDK4/CyclinD1, 32P incorporation into GST-Rb. The conditions noted are these: read-out: CDK4 IC50; recombinant human enzyme complex, average of two independent experiments in triplicate.

Protein sequences, listed by entry. Tags and fused reporters are not part of them. Lines headed by an entry give the natural chain unless they say otherwise; changes in a name come on top.
UniProt P11802: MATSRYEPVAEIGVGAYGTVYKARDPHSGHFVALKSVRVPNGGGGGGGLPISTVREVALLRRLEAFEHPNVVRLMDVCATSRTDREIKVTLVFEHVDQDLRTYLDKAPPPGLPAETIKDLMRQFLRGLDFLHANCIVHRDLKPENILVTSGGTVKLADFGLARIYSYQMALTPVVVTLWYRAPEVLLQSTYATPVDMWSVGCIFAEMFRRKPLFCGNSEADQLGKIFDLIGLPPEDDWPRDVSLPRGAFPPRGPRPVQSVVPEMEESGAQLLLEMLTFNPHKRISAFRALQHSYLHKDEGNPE

Take `O=C(c1cc2cc([N+](=O)[O-])cc([N+](=O)[O-])c2oc1=O)c1cc2cc([N+](=O)[O-])cc([N+](=O)[O-])c2oc1=O`: the IC50 was greater than 10 µM.

For orientation: IC50 means the concentration that inhibits the measured activity by half.

(Values after patent publication US8067461B2, “3-acyl coumarins, thiochromones and quinolones and therapeutic uses thereof” (Temple University-Of The Commonwealth System of Higher …, priority 2005, dated 2011).)
